# PubChem BioAssay AID1850 (Southern Research Specialized Biocontainment Screening …, 2009)
# The entries are a selection whose mix differs from that of the whole data set. Measured potencies and affinities stand elsewhere. The source made the active and inactive calls. The rule behind the calls is not given here.
# Assay: PhoP regulon inhibitors, Salmonella typhi PhoP promoter GFP reporter, confirmatory (AID 1850);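 note: 0% = induced wells with vehicle and 100% = uninduced wells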
# Settings: fluorescence, 4 h, at 50 µM, active compounds read high
row,SMILES,inhibition
1,CC(=O)Nc1ccc(Oc2c([N+](=O)[O-])cc([N+](=O)[O-])cc2[N+](=O)[O-])cc1,inactive: 4.32%
2,CC(=O)Nc1ccc([As](=O)(O)O)c(O)c1,inactive: 0.23%
3,C[C@H]1OP(=O)(Oc2ccccc2)C[C@@H]2O[C@@H]21 (some centres not stated),inactive: -4.51%
4,C[C@@H]1C=CCP(=O)(Oc2ccccc2)O1 (some centres not stated),inactive: -5.17%
5,CC(=O)c1ccc(N2CC2c2ccncc2)cc1 (configuration not stated),inactive: 1.8%
6,CC(C)(C)C(=O)NC(Sc1ccccc1)C(Cl)(Cl)Cl (configuration not stated),inactive: -6.08%
7,CCOc1ccc(C2=NCC(CBr)S2)cc1 (configuration not stated),inactive: 4.46%
8,O=P1(Nc2nc3ccc(Cl)cc3s2)COc2ccccc2O1 (configuration not stated),inactive: -14%
9,CCOP(=O)(Nc1cccc2ccccc12)OCC,inactive: -7.36%
10,COc1cc(C2NCCC3(OCCO3)C2(C)C)cc(OC)c1OC (configuration not stated),inactive: -3.29%
11,Nc1cccc2c([As](=O)(O)O)cccc12,inactive: 1.97%
12,Cc1ccc(NCCc2c([N+](=O)[O-])cc([N+](=O)[O-])cc2[N+](=O)[O-])cc1,inactive: -8.1%
13,CCCOP(=S)(Nc1nc(N)cc(=O)[nH]1)OCCC,inactive: -2.36%
14,Cc1cccc(OCC(=O)OC2CN3CCC2CC3)c1 (configuration not stated),inactive: 12.6%
15,O=[As](O)(c1cccc(O)c1)c1cccc(O)c1,inactive: 5.53%
16,O=C(OC1CN2CCC1CC2)c1ccc(Cl)cc1 (configuration not stated),inactive: 7.89%
17,CS(=O)(=O)c1ccc(Cl)c(NC(=O)COC(=O)C(O)(c2ccccc2)c2ccccc2)c1,inactive: -5.96%
18,O=[As](O)(O)c1cccnc1,inactive: 0.09%
19,COc1cc(C(=O)NCC2(N3CCOCC3)CCCCC2)cc(Cl)c1OC(C)C,inactive: 4.2%
20,CCOP1(=S)c2c(C)nn(CCC#N)c2N=C(c2ccc(F)cc2)N1C (configuration not stated),inactive: 4.49%
21,CN(C(=O)Cc1ccccc1)[C@@H]1CC[C@]2(CCCO2)C[C@H]1N1CCCC1,inactive: 0.76%
22,N#CCCN(C(=O)COC(=O)C(O)(c1ccccc1)c1ccccc1)c1ccc(F)cc1,inactive: 2.07%
23,CN(C(=O)Cc1ccc(Cl)c(Cl)c1)[C@H]1CC[C@@]2(CCCO2)C[C@@H]1N1CCCC1,inactive: -18.5%
24,O=[N+]([O-])c1ccc2c(c1)nnn2O,inactive: 2.45%
25,CN(C)C(=O)c1cc([N+](=O)[O-])cc2c1-c1c(cc([N+](=O)[O-])cc1[N+](=O)[O-])C2=O,inactive: -0.14%
26,NC(=O)Nc1ccc([As](=O)(O)O)cc1,inactive: 5.77%
27,O=C(O)COc1ccc([As](=O)(O)O)cc1[N+](=O)[O-],inactive: -3.43%
